HCMV NEC inh – inhibitors of HCMV UL50-UL53 interaction, biochemical, HTRF. HCMV UL50-UL53 nuclear egress complex (human cytomegalovirus). normalized percent inhibition. inhibition, % (test concentration not listed). hit rate 0.15% among 190,000. AID 1918969, 2023; in the data active = inhibition above about 27%, passing the limit was not always enough
GIV-Gai inh – inhibitors of GIV GBA-motif binding to rat Galpha-i3; Galpha-i3/FITC-GIV peptide fluorescence polarization, 90 min; stronger effect = lower value; scaled: aluminum fluoride 0%, vehicle 100%; P08753; hit rate 0.42% among 210,000; percent of control (FP), % (concentration not given with the values);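 active = replicate mean at 85% of control or lower, very high polarization wells dropped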;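 note: wells of about 15 µL received 100 nL stock; the first replicate is given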
GIV Gai FP conf – inhibitors of GIV peptide binding to Galpha-i3, confirmation, biochemical, fluorescence polarization, FITC-GIV peptide, rat Galphai3 | shares compounds with GIV-Gai inh | hits give low values | hit rate 38% among 580 | fluorescence polarization, mP at 100 µM;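 active = inhibition score of 15 or more, meaning 100 minus mean polarization as percent of control over three replicates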;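 also: lower mP means peptide displaced from Galphai3 so more inhibition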
GIV Gai AS conf – inhibitors of GIV binding to Galpha-i3, confirmation, orthogonal assay for GIV-Galpha-i inhibitor project, biochemical, AlphaScreen, His-GIV, GST-Galphai3. shares compounds with GIV-Gai inh. AlphaScreen counts at 100 µM. hit rate 39% among 580. purified proteins, 90 min; hits give low values;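 active = inhibition score at or above a set limit, where the score is 100 minus the three-replicate mean percent of control signal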
A number is an active result; . = inactive; / = no result given. Compounds with a hit are over-represented: about 0.43% of the library has one in this group of screens.

SMILES	HCMV NEC inh	GIV-Gai inh	GIV Gai FP conf	GIV Gai AS conf
Cc1cc2c(=O)[nH]nc(N)c2c(=O)[nH]1	.	.	/	/
Nc1n[nH]c2cc(=O)[nH]c(O)c12	110	48	45	7988
O=c1sc2ccccc2n1Cc1nnc(-c2ccccc2)o1	.	.	.	.
O=c1sc2ccccc2n1Cc1ccccc1	.	/	/	/
Cc1ccc(-c2nc(-c3ccc(NC(=O)c4cccc(Cl)c4)cc3)no2)cc1[N+](=O)[O-]	/	.	/	/
CC1(C)Cc2ccccc2C2=NNC(=O)C2=N1	.	76	54	.
CC1(C)Cc2ccccc2C(C2=C(O)CCCC2=O)=N1	/	.	/	/
O=C(COc1cc(C(F)(F)F)nc2ccccc12)Nc1ccc2c(c1)OCO2	.	.	/	/
CCc1ccc(S(=O)(=O)/N=C2/C=C(Nc3ccccc3)C(=O)c3ccccc32)cc1	/	.	/	/
CCc1ccc(S(=O)(=O)/N=C2\C=CC(=O)c3ccccc32)cc1	/	5.6	12	1607
CC1CN(C(=O)/C=C/c2cn(-c3ccccc3)nc2-c2ccc(Cl)cc2)CC(C)O1 (configuration not stated)	.	/	/	/
CCN(Cc1ccncc1)S(=O)(=O)c1cc(C(C)(C)C)ccc1C	.	/	/	/
Cc1c(C=Nc2ccc(Cl)cc2)c(O)n(C)c(=O)c1C#N	.	.	/	/
Cc1c(C=Nc2ccc(SC#N)c(Cl)c2)c(O)[nH]c(=O)c1C#N	.	49	.	.
CCOC(=O)CSc1nc(NCc2ccc3c(c2)OCO3)c2ccccc2n1	/	.	/	/
CCOC(=O)c1nc2ccccc2nc1NCc1ccc2c(c1)OCO2	.	.	.	.
Cc1cccc(C)c1NC(=O)Cn1nc(-c2ccc3c(c2)OCCO3)ccc1=O	.	.	/	/
Cc1ccc(NC(=O)c2sc3nc4c(c(-c5ccco5)c3c2N)CCCC4)cc1	/	.	/	/
Cc1ccc(NC(=O)c2sc3nc4c(c(-c5ccco5)c3c2N)CCC4)cc1	/	76	.	.
CS(=O)(=O)N1CCC(C(=O)N2CCOCC2)Oc2ccccc21 (configuration not stated)	/	.	/	/
Cc1ccc(N2C(=O)CN(CCc3ccccc3)[C@H]3CS(=O)(=O)C[C@H]32)cc1	.	.	/	/
O=C(c1ccccc1)c1ccccn1	.	77	.	.
NC(=O)c1ccccn1	.	/	/	/
CC1CCCN(c2nc3ncnc(SCC(=O)NC(C)CCc4ccccc4)c3s2)C1 (configuration not stated)	.	.	/	/
N#CCN(CC#N)C(=O)N1CCOCC1	.	.	/	/
SMILES	HCMV NEC inh	GIV-Gai inh	GIV Gai FP conf	GIV Gai AS conf
Nc1nonc1C(=O)NN=c1c(=O)c2ccccc2c1=O	.	80	.	25933
Nc1nonc1C(=O)NCCN=Cc1ccccc1O	.	.	/	/
Cc1cc(=O)cc(C)n1-c1ccc(O)cc1	.	/	/	/
Cc1cc(=O)n(-c2ccc(O)cc2)[nH]1	69	77	49	.
CCOc1cc(/C=c2\sc3nc4c(C)c(C)ccc4n3c2=O)cc(Cl)c1O	.	/	/	/
CCOC(=O)c1ccc(-c2ccc(/C=c3/sc4nc5c(C)c(C)ccc5n4c3=O)o2)cc1	/	79	.	.
Nc1nc(Cn2nnc(-c3ccc4c(c3)OCO4)n2)nc(N2CCOCC2)n1	/	.	/	/
CC(O)C(O)[C@H]1CNc2nc(N)[nH]c(=O)c2N1 (some centres not stated)	.	.	/	/
C[C@H](O)C(=O)C1=Nc2c(nc(N)[nH]c2=O)NC1	.	73	.	29102
COc1ccc2c(c1)-c1c(ssc1=S)C(C)(C)N2C(=O)CSc1nc2ccccc2o1	.	.	/	/
Cc1nc2cc(-c3noc(-c4cnccn4)n3)ccc2n(C(C)C)c1=O	.	.	.	.
CCn1nnc2cc(-c3noc(-c4cnccn4)n3)ccc21	/	.	/	/
COc1ccc(-c2cnc(NC(=O)NC(C)C)n2C)cc1	.	.	/	/
COc1ccc(N2CCN(C(=O)Cn3ccc4c(SCc5ccccc5)nccc43)CC2)cc1	/	.	/	/
CC1=C(C(=O)OC(C)C)C(c2ccc(C(C)C)cc2)C(C#N)=C(N)S1 (configuration not stated)	.	/	/	/
CC(C)c1ccc(C2C(C#N)=C(N)N3C(=C2C#N)Sc2ccccc23)cc1 (configuration not stated)	/	79	.	.
C=CCOc1ccc(/C=C2\SC(=S)N(CC(=O)O)C2=O)cc1OC	.	.	/	/
CN1CCN(C2=NC(C(=O)Nc3ccccc3)CC(=O)N2)CC1 (configuration not stated)	.	.	/	/
O=C1CC(C(=O)Nc2ccccc2)N=C(N2CCc3ccccc3C2)N1 (configuration not stated)	.	81	.	.

From PubChem
